Assay results taken from article PMC12040969, “Design, synthesis, in silico studies, and apoptotic antiproliferative activity of novel thiazole-2-acetamide derivatives as tubulin polymerization inhibitors” (Frontiers in Chemistry, 2025).

How the values were obtained:
[1] = test system: Caspase-3 in MDAMB-231 cancer cell line; assay: Caspase-3 activation assay; assay type: cell-based, human; settings: MDAMB-231 cells, relative to untreated control
Excerpt: (§1) […]. Supplementary Appendix A provides more information.

[2] = test system: Caspase-9 in MDAMB-231 cancer cell line; assay: Caspase-9 activation assay; assay type: cell-based, human; settings: MDAMB-231 cells, relative to untreated control
Description: […]. Compound 10o was the least efficient derivative as caspase-9 activators (0.90 ng/mL).
as §1

[3] = test system: Bax in MDAMB-231 cancer cell line; assay: Bax level assay; assay type: cell-based, human; settings: MDAMB-231 cells, relative to untreated control
Excerpt: as §1

[4] = test system: Bcl-2 in MDAMB-231 cancer cell line; assay: Bcl-2 level assay; assay type: cell-based, human; settings: MDAMB-231 cells, relative to untreated control
Excerpt: as §1

[5] = test system: prostatic - PC-3; assay: Antiproliferative assay (MTT) PC-3
[6] = test system: breast - MCF-7; assay: Antiproliferative assay (MTT) MCF-7
[7] = test system: colon - HCT-116; assay: Antiproliferative assay (MTT) HCT-116
[8] = test system: - MDAMB-231; assay: Antiproliferative assay (MTT) MDAMB-231

Cc1nc(SCC(=O)Nc2nc(-c3ccccc3)cs2)sc1C(=O)/C=C/c1ccccc1 [Compound 10a, (E)-2-((5-cinnamoyl-4-methylthiazol-2-yl)thio)-N-(4-phenylthiazol-2-yl)acetamide]
Caspase-3 Fold change [1]: ~10 fold | Caspase-9 Fold change [2]: 16 fold | Bax Fold change [3]: 38 fold | Bcl-2 Fold reduction [4]: 6 fold | Average of Relative viability of cells (%) ([5]; PC-3, 1.56 µM): 88.7% | Average of Relative viability of cells (%) ([5]; PC-3, 3.125 µM): 70.4% | Average of Relative viability of cells (%) ([5]; PC-3, 6.25 µM): 52.2% | Average of Relative viability of cells (%) ([5]; PC-3, 12.5 µM): 32.6% | Average of Relative viability of cells (%) ([5]; PC-3, 25 µM): 24.5% | Average of Relative viability of cells (%) ([5]; PC-3, 50 µM): 17.2% | Average of Relative viability of cells (%) ([5]; PC-3, 100 µM): 9.3% | Average of Relative viability of cells (%) ([6]; MCF-7, 1.56 µM): 67.3% | Average of Relative viability of cells (%) ([6]; MCF-7, 3.125 µM): 53.3% | Average of Relative viability of cells (%) ([6]; MCF-7, 6.25 µM): 42.8% | Average of Relative viability of cells (%) ([6]; MCF-7, 12.5 µM): 24.3% | Average of Relative viability of cells (%) ([6]; MCF-7, 25 µM): 16.7% | Average of Relative viability of cells (%) ([6]; MCF-7, 50 µM): 10.4% | Average of Relative viability of cells (%) ([6]; MCF-7, 100 µM): 5.2% | Potency relative to sorafenib, MCF-7 ([6]; MCF-7 breast cancer cell line): twice as strong as sorafenib | Average of Relative viability of cells (%) ([7]; HCT-116, 1.56 µM): 89.2% | Average of Relative viability of cells (%) ([7]; HCT-116, 3.125 µM): 69.8% | Average of Relative viability of cells (%) ([7]; HCT-116, 6.25 µM): 60.1% | Average of Relative viability of cells (%) ([7]; HCT-116, 12.5 µM): 31.5% | Average of Relative viability of cells (%) ([7]; HCT-116, 25 µM): 25.4% | Average of Relative viability of cells (%) ([7]; HCT-116, 50 µM): 16.9% | Average of Relative viability of cells (%) ([7]; HCT-116, 100 µM): 8.7% | Average of Relative viability of cells (%) ([8]; MDAMB-231, 1.56 µM): 87.6% | Average of Relative viability of cells (%) ([8]; MDAMB-231, 3.125 µM): 65.5% | Average of Relative viability of cells (%) ([8]; MDAMB-231, 6.25 µM): 39.1% | Average of Relative viability of cells (%) ([8]; MDAMB-231, 12.5 µM): 34.1% | Average of Relative viability of cells (%) ([8]; MDAMB-231, 25 µM): 21.2% | Average of Relative viability of cells (%) ([8]; MDAMB-231, 50 µM): 14.3% | Average of Relative viability of cells (%) ([8]; MDAMB-231, 100 µM): 7.4%
